Laboratory results from patent US11091463B2, “Amide-substituted pyridinyltriazole derivatives and uses thereof” (BAYER PHARMA AKTIENGESELLSCHAFT, priority 2016, dated 2021).
Where two headings read alike, the source gives them in different places.

Protein sequences, listed by entry. Tags and fused reporters are not part of them.
UniProt P37288, whole entry: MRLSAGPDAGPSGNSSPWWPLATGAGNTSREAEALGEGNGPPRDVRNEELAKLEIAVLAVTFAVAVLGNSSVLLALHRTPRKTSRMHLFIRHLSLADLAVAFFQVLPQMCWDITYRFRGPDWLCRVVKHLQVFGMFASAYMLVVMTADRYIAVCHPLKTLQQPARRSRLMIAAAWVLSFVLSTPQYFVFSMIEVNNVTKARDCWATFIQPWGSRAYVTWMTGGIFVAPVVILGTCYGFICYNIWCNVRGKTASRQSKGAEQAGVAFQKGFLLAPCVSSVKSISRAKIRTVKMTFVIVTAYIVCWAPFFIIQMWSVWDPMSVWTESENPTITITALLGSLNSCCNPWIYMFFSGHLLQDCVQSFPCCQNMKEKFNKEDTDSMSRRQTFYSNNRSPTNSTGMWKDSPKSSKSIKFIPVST
UniProt P30518, whole entry: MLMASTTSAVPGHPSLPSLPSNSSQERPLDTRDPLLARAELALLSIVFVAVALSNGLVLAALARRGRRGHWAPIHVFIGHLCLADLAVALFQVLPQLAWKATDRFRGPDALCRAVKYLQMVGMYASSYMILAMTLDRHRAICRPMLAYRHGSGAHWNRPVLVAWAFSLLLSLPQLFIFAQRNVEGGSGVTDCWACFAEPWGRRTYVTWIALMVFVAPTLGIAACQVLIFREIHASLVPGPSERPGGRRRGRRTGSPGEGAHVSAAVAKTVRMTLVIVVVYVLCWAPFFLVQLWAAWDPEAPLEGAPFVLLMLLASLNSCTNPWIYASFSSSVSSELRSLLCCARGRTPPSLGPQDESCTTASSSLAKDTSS

Key:
human V1a receptor = human V1a receptor (Homo sapiens, UniProt P37288); test: Cellular in vitro assay for vasopressin receptor activity, V1a receptor cell line (photoprotein luminescence); type: cell-based; conditions: for ratio IC50 hV2/hV1a: selectivity ratio; for IC50: read-out: IC50 hV1a, cell line transfected with human V1a receptor
human V2 receptor = human V2 receptor (Homo sapiens, UniProt P30518); test: Cellular in vitro assay for vasopressin receptor activity, V2 receptor cell line (CRE-luciferase); type: cell-based; conditions: read-out: IC50 hV2, cell line transfected with human V2 receptor
[1] = Table 1B, comparative prior art examples of WO 2011/104322-A1
[2] = Table 1C, comparative prior art examples of WO 2016/071212-A1

ratio IC50 hV2/hV1a (human V1a receptor; [1])	IC50 (human V1a receptor; [1]) [nM]	IC50 (human V2 receptor; [1]) [nM]	ratio IC50 hV2/hV1a (human V1a receptor; [2])	IC50 (human V1a receptor; [2]) [nM]	IC50 (human V2 receptor; [2]) [nM]	SMILES
0.86	280	241	–	–	–	NC(=O)c1ccc(Cn2nc(-c3ccc(Cl)cc3)n(C[C@H](O)C(F)(F)F)c2=O)cc1-c1ccccc1Cl
0.053	1320	69.9	–	–	–	NC(=O)Cn1nc(-c2ccccc2Cl)nc1Cn1nc(-c2ccc(Cl)cc2)n(C[C@H](O)C(F)(F)F)c1=O
–	–	–	8.78	–	–	O=c1n(Cc2nc(CO)n(-c3ccccc3C(F)(F)F)n2)nc(-c2ccc(Cl)cc2)n1C[C@H](O)C(F)(F)F
1.049	32.9	34.5	–	–	–	NC(=O)Cn1nc(Cn2nc(-c3ccc(Cl)cc3)n(CC(O)C(F)(F)F)c2=O)nc1Cc1ccccc1C(F)(F)F (single isomer, unassigned) [WO 2011/104322 Example 64]
–	–	–	3.43	0.6	2.2	C[C@H](O)c1nc(Cn2nc(-c3ccc(Cl)cc3)n(C[C@H](O)C(F)(F)F)c2=O)nn1-c1ccccc1Cl
0.462	2460	1140	–	–	–	NC(=O)Cn1nc(Cc2ccccc2C(F)(F)F)nc1Cn1nc(-c2ccc(Cl)cc2)n(CC(O)C(F)(F)F)c1=O (single isomer, unassigned) [WO 2011/104322 Example 67]
–	–	–	6.94	1.2	8.6	O=c1n(Cc2nc(CO)n(-c3ccccc3Cl)n2)nc(-c2ccc(Cl)cc2)n1C[C@H](O)C(F)(F)F
1.98	459	909	–	–	–	NC(=O)c1ccc(Cn2nc(-c3ccc(Cl)cc3)n(C[C@H](O)C(F)(F)F)c2=O)cc1-c1ccccc1C(F)(F)F
0.03	2220	70.7	–	–	–	NC(=O)c1cc(Cn2nc(-c3ccc(Cl)cc3)n(C[C@H](O)C(F)(F)F)c2=O)cc(-c2ccccc2Cl)c1
0.622	6.8	4.2	–	–	–	NC(=O)Cn1nc(Cn2nc(-c3ccc(Cl)cc3)n(CC(O)C(F)(F)F)c2=O)nc1Cc1ccccc1C(F)(F)F (single isomer, unassigned) [WO 2011/104322 Example 63]
0.052	1830	95	–	–	–	NC(=O)Cn1nc(Cc2ccccc2C(F)(F)F)nc1Cn1nc(-c2ccc(Cl)cc2)n(CC(O)C(F)(F)F)c1=O (single isomer, unassigned) [WO 2011/104322 Example 66]
0.170	324	55.1	–	–	–	NC(=O)C(c1ccccc1Cl)n1cc(Cn2nc(-c3ccc(Cl)cc3)n(C[C@H](O)C(F)(F)F)c2=O)nn1 (some centres unmarked)
–	–	–	6.48	–	–	C[C@@H](O)c1nc(Cn2nc(-c3ccc(Cl)cc3)n(C[C@H](O)C(F)(F)F)c2=O)nn1-c1ccccc1Cl
